Experimental findings from patent EP4825859A1, “DEUTERATED HETEROCYCLIC COMPOUND ACTING AS PDE4B INHIBITOR AND USE THEREOF” (dated 2026) are described below.

Protein sequences, listed by entry. Tags and fused reporters are not part of them. Chains listed by the source or under a name are the forms on record and can include a tag or linker. Residues count along the entry.
UniProt Q08499, 303-809 limits assumed: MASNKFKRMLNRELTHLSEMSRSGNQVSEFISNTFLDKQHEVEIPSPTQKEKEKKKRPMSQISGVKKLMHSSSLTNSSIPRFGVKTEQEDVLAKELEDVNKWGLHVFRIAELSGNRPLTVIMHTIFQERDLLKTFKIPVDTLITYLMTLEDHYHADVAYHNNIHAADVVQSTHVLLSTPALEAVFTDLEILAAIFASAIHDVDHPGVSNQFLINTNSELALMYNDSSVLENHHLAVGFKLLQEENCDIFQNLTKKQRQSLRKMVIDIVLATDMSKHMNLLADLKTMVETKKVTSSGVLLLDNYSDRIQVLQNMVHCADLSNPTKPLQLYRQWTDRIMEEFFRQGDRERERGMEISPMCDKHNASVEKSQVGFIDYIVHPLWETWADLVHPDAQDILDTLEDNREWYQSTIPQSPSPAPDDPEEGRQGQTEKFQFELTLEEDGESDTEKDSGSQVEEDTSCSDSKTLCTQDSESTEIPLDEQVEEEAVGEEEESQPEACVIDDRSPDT
UniProt Q07343, 1-564 with tags or gaps: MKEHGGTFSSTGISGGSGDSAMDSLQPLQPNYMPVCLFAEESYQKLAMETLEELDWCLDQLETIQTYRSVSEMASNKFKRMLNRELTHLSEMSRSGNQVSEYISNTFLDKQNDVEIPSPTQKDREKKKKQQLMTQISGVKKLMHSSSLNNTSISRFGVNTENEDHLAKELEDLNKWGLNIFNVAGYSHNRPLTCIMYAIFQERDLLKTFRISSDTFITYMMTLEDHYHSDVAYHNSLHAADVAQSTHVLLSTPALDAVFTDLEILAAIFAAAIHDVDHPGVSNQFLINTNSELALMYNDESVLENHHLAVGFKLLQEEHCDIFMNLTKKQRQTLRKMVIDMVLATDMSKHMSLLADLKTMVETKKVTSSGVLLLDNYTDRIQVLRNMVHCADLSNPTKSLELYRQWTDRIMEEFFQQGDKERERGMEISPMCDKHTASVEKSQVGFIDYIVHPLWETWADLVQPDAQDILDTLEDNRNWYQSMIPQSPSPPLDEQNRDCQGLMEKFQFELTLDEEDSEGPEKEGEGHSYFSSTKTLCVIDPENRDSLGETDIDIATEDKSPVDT

Series [1] is described as follows: Pharmacokinetic study in cynomolgus monkeys, oral gavage. Particulars: oral gavage 10 mg/kg; for AUC0-t / CL/F / Cmax: plasma. The protocol:
For the pharmacokinetic study in monkeys, male cynomolgus monkeys weighing 5 kg to 7 kg were used and fasted overnight. Three cynomolgus monkeys were administered with the compound via oral gavage at 10 mg/kg. Blood samples were collected before the administration, and 15 minutes, 30 minutes, 1 hour, 2 hours, 4 hours, 8 hours, and 24 hours after the administration. Whole blood samples were placed in EDTA K2 tubes for anticoagulation, and then centrifuged (at 1,500 g to 1,600 g) at 4°C for 10 minutes to separate plasma. All the samples were stored at -80°C until analysis. 20 µL of plasma collected at each time point was mixed with 400 µL of acetonitrile-methanol solution containing internal standard. After vortex mixing, the mixture was centrifuged at 3,700 rpm for 10 minutes. 50 µL of the supernatant was added to 100 µL of water, followed by vortex-mixing. An appropriate amount of the mixed solution was subjected to LC-MS/MS analysis. The main plasma pharmacokinetic parameters were calculated using a noncompartmental model. [Table 3] Pharmacokinetic Results in Cynomolgus Monkeys After Oral Gavage Administration

Series [2] deals with LPS-induced TNF-α secretion by human PBMCs. Description: Inhibition of LPS-induced TNF-α secretion by human PBMCs (ELISA). The note with it: read-out: IC50 for inhibition of LPS-induced TNF-α secretion by human PBMCs; LPS 0.1 µg/mL, 4 hours. The protocol: Fresh blood samples were diluted with an equal volume of PBS (BI, 02-024-01ACS) for later use. 15 mL of Lymphoprep (stem cell, 7851) was added into a 50 mL centrifuge tube, and 30 mL of diluted blood sample was slowly layered onto the Lymphoprep without disturbing the interface. The mixture was centrifuged at 1,000 g for 25 minutes at room temperature with the brake off. The buffy coat containing PBMCs was collected into a new 50 mL centrifuge tube, washed twice with 50 mL of DPBS, and centrifuged at 350 g for 10 minutes. The supernatant was discarded. The cells were resuspended in complete RPMI 1640 medium and adjusted to a density of 1.5×10^6 cells/mL. A 96-well cell culture plate was taken, and 100 µL of the PBMC suspension was added to each well. The test compounds were prepared as 4× working solutions at a series of concentrations using complete RPMI 1640 medium, and 50 µL of the compound working solution was added to the corresponding wells. […] The expression of TNF-α was measured using a Human TNF-α ELISA Kit (Cat: 555212) from BD Biosciences. An inhibition rate of the test compounds on the LPS-induced TNF-α secretion by the human PBMCs was calculated. Based on the inhibition rates at different concentrations of the compounds, IC50 values for the inhibition of the TNF-α secretion by the LPS-stimulated human PBMCs were measured by curve fitting using GraphPad Prism 8 software. […]

Series [3] is described as follows: Mouse tissue distribution assay. Particulars: mice, oral gavage 10 mg/kg. The protocol:
For the mouse tissue distribution assay, ICR mice weighing 20 g to 25 g were used and fasted overnight. 8 male mice and 4 female mice were administered via oral gavage at 10 mg/kg. Blood samples as well as tissue samples including stomach, small intestine, and large intestine were collected at 30 minutes, 1 hour, 4 hours, and 8 hours after the administration. Two male mice and one female mouse were used at each time point. Whole blood samples were placed in EDTA-K2 tubes for anticoagulation, and then centrifuged (at 1,500 g to 1,600 g) at 4°C for 10 minutes to separate plasma. All plasma and tissue samples were stored at -80°C until analysis. Compound concentrations in plasma and homogenate samples (stomach, small intestine, and large intestine) from mice were measured by LC-MS/MS, and area under the concentration-time curve and tissue/plasma area under the curve ratio were calculated based on the compound concentrations at different time points. [Table 5] Results of Mouse Tissue Distribution Assay

The test system of series [4] is human HepG2 cells. As to the kind of experiment: In vitro toxicity evaluation on human HepG2 cells (CTG). Particulars: read-out: IC50 on HepG2 cells; 72 hours incubation, CTG luminescence. The method, then: HepG2 cells in a logarithmic growth phase were trypsinized and resuspended in MEM complete medium containing 10% FBS. 10,000 cells were seeded in each well of a 96-well plate (no cells were seeded in the blank control group) with a seeding volume of 100 µL/well. The plates were incubated at 37°C in a CO2 incubator for 24 hours.
The test compounds were prepared as 50 mM stock solutions in DMSO, serially diluted to appropriate concentrations in DMSO, and further 3-fold serially diluted with cell culture medium to obtain 2× working solutions. 100 µL of the test compound working solution was added to the corresponding wells of the 96-well plate (n=2). Meanwhile, a blank control group (cell culture medium containing 0.5% DMSO) and a DMSO control group (cell culture medium containing 0.5% DMSO) were set. After the plate was incubated at 37°C in a CO2 incubator for 72 hours, 100 µL of the supernatant was aspirated from each well and discarded. Then, 50 µL of CTG (Promega, G9243) was added to each well. The plate was shaken on a microplate shaker for 5 minutes, allowed to stand for 10 min, and the luminescence value was read using a microplate reader. The inhibition rate of the test compounds on the human HepG2 cells was calculated, and the IC50 values of the compound on human HepG2 cells were fitted based on the inhibition rate of the compound at different concentrations. Inhibition rate=100%-(test compound-blank control group)/(DMSO group-blank control group) × 100%. Table 4. In vitro Toxicity Evaluation Results of Compounds on HepG2 cells

Series [5] deals with PDE4D2 (Homo sapiens, UniProt Q08499). Description: Enzyme activity inhibition assay against PDE4D2 (AMP-Glo Assay kit). The note with it: read-out: PDE4D2 IC50, 60 minutes at room temperature. The method, then:
(§1) Inhibitory activities of the compounds of the present disclosure against PDE4B2 and PDE4D2 can be detected using AMP-Glo™ Assay kit (Promega, V5011). First, all compounds were prepared as stock solution at 20 or 25 mM in DMSO, followed by 3-fold serial dilution in DMSO on a compound plate to obtain 200×working solutions. Meanwhile, 200×Rolipram (2 mM) was prepared as a positive control, and 100% DMSO was served as a blank control. The compound plate was centrifuged at 1,000 rpm for 1 minute. 20 nL of the compound working solution was transferred to a 384-well assay plate (Greiner, 784075) using Echo 550, and the plate was sealed and then centrifuged at 1,000 rpm for 1 minute. PDE4B2 enzyme (BPS bioscience, 60042) and PDE4D2 enzyme (BPS bioscience, 60048) were diluted to 2×working solutions using ice-cold PDE assay buffer. […] AMP was detected using the AMP-Glo™ Assay kit (Promega, V5011): 4 µL of AMP-Glo Reagent I was added to each well of the 384-well assay plate, followed by incubation at room temperature for 60 min; then 8 µL of AMP Detection Reagent was added to each well of the 384-well assay plate, followed by incubation at room temperature for 60 minutes. RLU (relative light unit) signals were read using an Envision 2105 instrument. […] The experimental results were imported into GraphPad Prism software, and the IC50 value of each compound was calculated by curve fitting. […]

For series [6], the target named is PDE4B2 (Homo sapiens, UniProt Q07343). Description: Enzyme activity inhibition assay against PDE4B2 (AMP-Glo Assay kit). Particulars: read-out: PDE4B2 IC50, 60 minutes at room temperature. The protocol: as §1
[7] abbreviates: Large Intestine AUC(0-t) / plasma AUC(0-t).
[8] abbreviates: Small Intestine AUC(0-t) / plasma AUC(0-t).
[9] abbreviates: Stomach AUC(0-t) / plasma AUC(0-t).

Regarding `[O-][S@+]1CCc2nc(N3CC4(CC(c5ncc(Cl)cn5)C4)C3)nc(NC3(CO)CCC3)c21`, the AUC0-t in series [1] is on record as 9,793 h·ng/mL. Besides, the CL/F in series [1] is reported as 1,006 mL/h/kg. Also, in series [1], the Cmax is given as 2,061 ng/mL. In addition, the IC50 in series [2] was 63.4 nM. Besides, the tissue/plasma ratio was found to be 8.44 in series [3] (setting [7]), 4.89 in series [3] (setting [8]) and 17.85 in series [3] (setting [9]). For the same molecule, the “Area under the concentration-time curve AUC(0-t)” value is given as 105,410 h*ng/g in series [3] (Large Intestine), 12,487 h*ng/ml in series [3] (Plasma), 61,044 h*ng/g in series [3] (Small Intestine) and 222,882 h*ng/g in series [3] (Stomach).

Take `[2H]C1([2H])C([2H])([2H])C(CO)(Nc2nc(N3CC4(CC(c5ncc(Cl)cn5)C4)C3)nc3c2[S@+]([O-])CC3)C1([2H])[2H]`: the IC50 in series [4] is > 200000 nM.

As to `[2H]C1([2H])C[S@@+]([O-])c2c(NC3(CO)CCC3)nc(N3CC4(CC(c5ncc(Cl)cn5)C4)C3)nc21`, the IC50 in series [4] is > 200000 nM.

“(R)-2-(6-(5-chloropyrimidin-2-yl)-2-azaspiro[3.3]hept-2-yl)-4-((1-(hydroxymethyl)cyclobutyl -3,3-d2)amino)-6,7-dihydrothieno[3,2-d]pyrimidin-5-oxide”: the IC50 in series [4] is > 200000 nM.

Turning to “(R)-2-(6-(5-chloropyrimidin-2-yl)-6-deutero-2-azaspiro[3.3]hept-2-yl)-4-((1-(hydroxymethyl)cyclobutyl -2,2,3,3,4,4-d6)amino)-6,7-dihydrothieno[3,2-d]pyrimidin-5-oxide”, in series [4], the IC50 was > 200000 nM.

Take `[2H]C([2H])(O)C1(Nc2nc(N3CC4(CC(c5ncc(Cl)cn5)C4)C3)nc3c2[S@+]([O-])CC3)CCC1`: the IC50 in series [5] was 45.1 nM; in series [6], 14.5 nM; in series [2] it was 41.4 nM; in series [4], > 200000 nM. Moreover, the “AUC0-t relative to Control Compound 1” value in series [1] is given as “twice”. Further, in series [1], the AUC0-t is 19,549 h·ng/mL. The molecule further yielded a CL/F in series [1] of 506 mL/h/kg. Moreover, the Cmax in series [1] is listed as 2,426 ng/mL. The results for the tissue/plasma ratio in series [3] (setting [7]), in series [3] (setting [8]) and in series [3] (setting [9]) were 2.66, 2.77 and 3.05, respectively. The “Area under the concentration-time curve AUC(0-t)” value in series [3] (Large Intestine) is listed as 42,506 h*ng/g; in series [3] (Plasma), 15,998 h*ng/ml; in series [3] (Small Intestine) it was 44,273 h*ng/g; in series [3] (Stomach), 48,722 h*ng/g.

Regarding “(R)-2-(6-(5-chloropyrimidin-2-yl)-2-azaspiro[3.3]hept-2-yl)-4-((1-(hydroxymethyl-d2)cyclobutyl-3,3-d2)amino)-6,7-dihydrothieno[3,2-d]pyrimidin-5-oxide”, the IC50 in series [4] is > 200000 nM.

Take `[2H]C1C2(CN(c3nc4c(c(NC5(CO)CCC5)n3)[S@+]([O-])CC4)C2)CC1([2H])c1ncc(Cl)cn1` (some centres unmarked): the IC50 in series [4] is > 200000 nM.

As usually defined, the CL/F is clearance divided by bioavailability, as obtained after extravascular dosing. What is called IC50 is the concentration that inhibits the measured activity by half.
